Test system: TEL-VEGFR2-BaF3
Test: Anti-proliferation assay
Type: cell-based
Conditions: 72 h

CCN(CC)CCNC(=O)c1c(C)[nH]c(/C=C2\C(=O)Nc3ccc(F)cc32)c1C [Sunitinib]
GI50: 5 nM

Reference: publication PMC7049616 (Acta Pharmaceutica Sinica. B, 2019)
